Literature values as cited in patent US7220743B2 (dated 2007).

The chains behind the UniProt entries cited, without tags or fusion partners.
UniProt P47746, whole entry: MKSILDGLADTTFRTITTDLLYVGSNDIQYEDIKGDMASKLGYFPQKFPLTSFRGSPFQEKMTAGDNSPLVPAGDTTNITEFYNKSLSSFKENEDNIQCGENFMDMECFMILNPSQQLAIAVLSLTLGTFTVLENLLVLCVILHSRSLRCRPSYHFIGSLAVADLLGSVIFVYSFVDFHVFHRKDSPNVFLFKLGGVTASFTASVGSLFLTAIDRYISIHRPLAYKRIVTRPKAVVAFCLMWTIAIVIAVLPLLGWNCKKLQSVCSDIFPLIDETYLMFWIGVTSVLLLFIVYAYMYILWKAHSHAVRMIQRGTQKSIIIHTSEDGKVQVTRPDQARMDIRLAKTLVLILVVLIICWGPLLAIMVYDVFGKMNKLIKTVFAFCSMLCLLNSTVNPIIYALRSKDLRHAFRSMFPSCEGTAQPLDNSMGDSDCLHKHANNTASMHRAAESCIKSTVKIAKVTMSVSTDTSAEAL

Molecular target: CB1 receptor (Mus musculus, UniProt P47746)
Details: wild-type but not knockout mice, after temporary food restriction; cited from earlier work

Structure (SMILES): Cc1c(C(=O)NN2CCCCC2)nn(-c2ccc(Cl)cc2Cl)c1-c1ccc(Cl)cc1 [SR-141716]
- food intake: reduces food intake in wild-type but not knockout mice
